Values of other authors, collected in patent publication US9700872B1, “Superpolar chromatographic stationary phases and extraction sorbents and their methods of synthesis” (THE FLORIDA INTERNATIONAL UNIVERSITY BOARD OF TRUSTEES, priority 2016, dated 2017).
Some compounds may have been tested in ways that are not shown here.

Details: octanol/water; Top 100 EPA Priority Pollutants (Table 2)

Structure (SMILES): Cc1ccc([N+](=O)[O-])cc1[N+](=O)[O-]
- Log Kow: 2

Structure (SMILES): Cc1c([N+](=O)[O-])cccc1[N+](=O)[O-]
- Log Kow: 2.1
